These results are taken from publication PMC11172478, “1,3,5-Triazine as Branching Connector for the Construction of Novel Antimicrobial Peptide Dendrimers: Synthesis and Biological Characterization” (International Journal of Molecular Sciences, 2024).

The test system of series [1] is L-929 fibroblasts. As to the kind of experiment: Cytotoxicity, resazurin reduction. The format is cell-based, murine. Particulars: L-929 cells, 24 h, resazurin fluorescence. Here is the method:
(§1) The cytotoxicity assay was performed in the human hepatocellular carcinoma cell line Hep G2 ATCC and murine L-929 fibroblasts (NCTC clone 929, ECACC 88102702) obtained from the laboratory of Dr. Pérez-Tomás (Cancer Cell Biology, University of Barcelona). The cytotoxicity of the selected peptides was determined by measuring the intracellular reduction of resazurin sodium salt (Sigma-Aldrich, St. Louis, MO, USA). Briefly, HepG2 and L-929 cells were grown in RPMI 1640 or MEM medium, respectively (Biochrom AG, Berlin, Germany), supplemented with 10% fetal bovine serum. Cells from pre-confluent cultures were harvested with trypsin-EDTA and maintained at 37 °C in 5% CO2. Then, 100 µL of each cell line was seeded into 96-well flat-bottomed microplates and incubated for 24 h at 37 °C. The medium was then replaced with 200 μL of medium containing the dendrimers at concentrations ranging from 64 to 0.125 μg/mL and the microplates were incubated for 24 h at 37 °C. Next, 20 μL of resazurin was added to each well and the plates were incubated under the same conditions for 24 h. Fluorescence was measured using a multiwell scanning spectrophotometer at an excitation wavelength of 530 nm and an emission wavelength of 590 nm. Cytotoxicity was then calculated by comparing the fluorescence of the treated and untreated cells (Figure S22).

Series [2] relates to Hep G2 hepatocellular carcinoma cell line. As to the kind of experiment: Cytotoxicity, resazurin reduction. The format is cell-based, human. Particulars: HepG2 cells, 24 h, resazurin fluorescence. Here is the method: as §1

In the case of “H-[(LK)3-EDA]4-(TA-EDA)2-TA-(LK)3-NH2 [Dendrimer 3]”, the “% Cytotoxicity at 64µg/mL, L-929” value in series [1] was determined as 0%. Besides, the “% Cytotoxicity at 64µg/mL, HepG2” value in series [2] turned out to be 0%.
